The structures appear in SMILES notation. Values after ≈ are worked out from the molar mass of the structure shown.

The subject of one series is Escherichia coli. Nature of the series: Antimicrobial activity against Escherichia coli ATCC 25922 incubated for 16 to 20 hrs by CLSI based broth dilution method. Format: functional. The conditions noted are these: time 16-20 hrs. (Dilution methods test growth across graded concentrations, often in twofold steps.)
In series [1] the test system is Staphylococcus aureus. Nature of the series: Antimicrobial activity against Staphylococcus aureus ATCC 29213 incubated for 16 to 20 hrs by CLSI based broth dilution method. In kind it is functional. The settings on record: time 16-20 hrs.
A short description of series [2]: Hemolytic activity in sheep erythrocytes incubated for 1 hr by absorbance based analysis. Format: toxicity, cell-based, Ovis aries, Erythrocyte.
Series [3] deals with Staphylococcus aureus. Description: Bactericidal activity against Staphylococcus aureus ATCC 29213 in presence of 50% plasma or 50% serum measured immediately by broth dilution method (reference value: 4 ug/ml). Format: functional.
Series [4] relates to Staphylococcus aureus. Nature of the series: Bactericidal activity against Staphylococcus aureus ATCC 29213 in presence of 50% plasma or 50% serum measured after 3 hrs by broth dilution method (reference value: 4 ug/ml). In kind it is functional.
Series [5] has as its system Staphylococcus aureus. Nature of the series: Bactericidal activity against Staphylococcus aureus ATCC 29213 in presence of 50% plasma or 50% serum measured after 6 hrs by broth dilution method (reference value: 4 ug/ml). In kind it is functional.
A short description of series [6]: Cytotoxicity against human BGC cells assessed as inhibition of cell growth incubated for 72 hrs by CCK-8 assay. Format: toxicity, cell-based. On the technique in general: Tetrazolium assays rely on reduction of a dye to a coloured formazan, in cell work by metabolically active cells.
Series [7] is described as follows: Cytotoxicity against human WPMY-1 cells assessed as inhibition of cell growth incubated for 72 hrs by CCK-8 assay. Format: toxicity, cell-based.

One may read the MIC as the least concentration at which growth counts as inhibited. By HC50 is commonly meant the concentration giving 50% haemolysis. Broadly, the IC50 is the concentration at which inhibition is half-maximal. `CC[C@H](C)[C@H](NC(=O)CN)C(=O)NCC(=O)N[C@@H](C)C(=O)N[C@H](C(=O)N[C@@H](CC(C)C)C(=O)N[C@@H](CCCCN)C(=O)N[C@H](C(=O)N[C@@H](CC(C)C)C(=O)N[C@H](C(=O)N[C@H](C(=O)NCC(=O)N[C@@H](CC(C)C)C(=O)N1CCC[C@H]1C(=O)N[C@@H](C)C(=O)N[C@@H](CC(C)C)C(=O)N[C@H](C(=O)N[C@@H](CO)C(=O)N[C@@H](Cc1c[nH]c2ccccc12)C(=O)N[C@H](C(=O)N[C@@H](CCCCN)C(=O)N[C@@H](CCCNC(=N)N)C(=O)N[C@@H](CCCCN)C(=O)N[C@@H](CCCNC(=N)N)C(=O)N[C@@H](CCC(N)=O)C(=O)N[C@@H](CCC(N)=O)C(N)=O)[C@@H](C)CC)[C@@H](C)CC)[C@@H](C)O)[C@@H](C)O)C(C)C)C(C)C` [MELITTIN]: the MIC in the series on Escherichia coli was 4 mg/L (≈ 1.41 µM); with Staphylococcus aureus [1], 4 mg/L (≈ 1.41 µM); in the series on Staphylococcus aureus [3] it was greater than 128 mg/L; in the series on Staphylococcus aureus [4], greater than 128 mg/L; in the series on Staphylococcus aureus [5], greater than 128 mg/L. In series [2], the HC50 at 1 h stood at 4 µg/mL. The IC50 at 72 h in series [6] worked out at 8.1 mg/L (≈ 2.85 µM); in series [7] it was 4.1 mg/L (≈ 1.44 µM).

The values above are taken from ChEMBL document CHEMBL5331085 (Eur J Med Chem, 2023).
